# The entries are a selection whose mix differs from that of the whole data set. Calls of active or inactive are those of the source.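 Rule for the calls: active = inhibition above its plate's cutoff, the mean of tested wells on that plate plus 3 SD (cut at about 29% in these data); inactive = the rest.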
# The chains behind the UniProt entries cited, without tags or fusion partners.
# UniProt P32245, whole entry: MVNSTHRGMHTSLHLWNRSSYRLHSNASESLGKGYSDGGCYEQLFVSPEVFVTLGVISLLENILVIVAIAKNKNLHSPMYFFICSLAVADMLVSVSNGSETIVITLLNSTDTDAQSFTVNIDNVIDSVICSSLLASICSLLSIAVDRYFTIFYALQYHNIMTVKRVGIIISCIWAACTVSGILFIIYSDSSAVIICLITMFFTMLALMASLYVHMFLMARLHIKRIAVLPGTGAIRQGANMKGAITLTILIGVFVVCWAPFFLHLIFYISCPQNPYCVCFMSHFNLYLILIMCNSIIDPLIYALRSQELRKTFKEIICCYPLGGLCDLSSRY
# Molecular target: Melanocortin receptor 4 (Homo sapiens) (UniProt P32245)
# Test: blockers of MC4R Gs-cAMP response – cell-based, TR-FRET, antagonist arm of biased-ligand search, primary screen (AID 540295);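 note: 0% = Melanotan II alone and 100% = Melanotan II plus saturating MCL0020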
# Conditions: MC4R-expressing cells, MTII-stimulated cAMP, LANCE TR-FRET; at 6.5 µM; stronger effect = higher value
row,SMILES,inhibition
1,CCN1CCC(Nc2cccc(F)c2)CC1,inactive: 10.7%
2,Cc1ccccc1NC1(C#N)CCN(Cc2ccccc2)CC1,inactive: 3.01%
3,CN(C)c1ccc(C(=O)NCC2(N3CCCCC3)CCCCC2)cc1,inactive: 12.5%
4,Cn1c(=O)[nH]cc(N(CCCl)CCCl)c1=O,inactive: 6.56%
5,O=C(NCC1(N2CCCCC2)CCCCC1)c1ccco1,inactive: 11.1%
6,COc1cc(OC)cc(C(=O)NCC2(N3CCCCC3)CCCCC2)c1,inactive: 12.4%
7,CC(=O)N(c1ccccc1)C1CCNCC1,inactive: 0.15%
8,Cc1ccc(NC2(C#N)CCN(Cc3ccccc3)CC2)cc1,inactive: -0.5%
9,Fc1ccccc1NC1CCN(Cc2ccccc2)CC1,inactive: -1.34%
10,Cc1ccc(C(=O)NCC2(N3CCCCC3)CCCCC2)o1,inactive: 5.48%
11,CCC(CO)(C(=O)OC1CN2CCC1CC2)c1ccccc1 (stereo not given),inactive: -2.45%
12,COc1cccc(C(=O)N(c2cc(C)cc(C)c2)C2CCN(C(=O)OC(C)(C)C)CC2)c1,inactive: 3.62%
13,COc1cc(OC)cc(C(=O)NCC2(N3CCOCC3)CCCCC2)c1,inactive: -0.15%
14,CN1CCC(Nc2ccc(Cl)cc2)CC1,inactive: 11.5%
15,CN1CCC(Nc2ccc(F)c(Cl)c2)CC1,inactive: 0.09%
16,CCOc1ncccc1C(=O)NCC1(N2CCOCC2)CCCCC1,inactive: 17.2%
17,CCCOc1ccc(C(=O)NCC2(N(C)C)CCCCC2)cc1,inactive: 11.2%
18,O=C(O)C1(Nc2ccccc2)CCN(Cc2ccccc2)CC1,inactive: 9.16%
19,CC(C)(C)OC(=O)N1CCC(Nc2ccccc2)CC1,inactive: -9.49%
20,N/C(=N\O)c1c(N)no[n+]1[O-],inactive: 21.4%
21,CCOC(=O)N1CCC(Nc2ccc(C)cc2)CC1,inactive: -0.26%
22,O=C(OC1CN2CCC1CC2)C1c2ccccc2C=Cc2ccccc21 (stereo not given),inactive: 7.21%
23,O=C(NCC1(N2CCOCC2)CCCCC1)c1cc(Br)ccc1Cl,inactive: 12%
24,COc1cc(C(=O)NCC2(N3CCOCC3)CCCCC2)cc(OC)c1C,inactive: 3.65%
25,COc1ccc(C(=O)NCC2(N3CCOCC3)CCCCC2)cc1OC,inactive: -4.92%

row,SMILES,inhibition
1,CCCN1CCC(Nc2cc(OC)cc(OC)c2)CC1,inactive: -5.03%
2,Cc1cc(N(CCCl)CCCl)ccc1C=O,inactive: -3.06%
3,c1ccc(CN2CCC(Nc3ccccc3)CC2)cc1,inactive: 7.97%
4,CN(C)C1(CNC(=O)c2cccc(C#N)c2)CCCCC1,inactive: 1.45%
5,CC(C)(C)OC(=O)N1CCC(N(C(=O)c2ccccc2)c2ccc(Cl)cc2)CC1,inactive: 9.06%
6,N#Cc1ccc(C(=O)NCC2(N3CCCCC3)CCCCC2)cc1,inactive: 7.64%
7,O=C(NCC1(N2CCCCC2)CCCCC1)c1cccc(C(F)(F)F)c1,inactive: 5.5%
8,COc1ccc(NC2CCN(C(=O)OC(C)(C)C)CC2)cc1,inactive: 3.89%
9,CC(C)c1ccc(C(=O)NCC2(N3CCOCC3)CCCCC2)cc1,inactive: 5.08%
10,CN1CCN(CCOC(=O)C(O)(c2ccccc2)c2ccccc2)CC1,inactive: -4.23%
11,O=C(NCC1(N2CCOCC2)CCCCC1)c1cc(=O)[nH]c2ccccc12,inactive: 5.57%
12,COc1cc(C(=O)NCC2(N3CCCCC3)CCCCC2)ccc1OC(F)F,inactive: 6.36%
13,O=C(NCC1(N2CCCCC2)CCCCC1)c1ccc(OC(F)F)cc1,inactive: 6.72%
14,O=C(NCC1(N2CCCCC2)CCCCC1)c1cccc([N+](=O)[O-])c1,inactive: 6.33%
15,CSc1ccc(C(=O)NCC2(N3CCOCC3)CCCCC2)cc1,inactive: 2.15%
16,N#CC1(Nc2ccccc2)CCN(CCc2ccccc2)CC1,inactive: 11.1%
17,CCN1CCC(Nc2ccc(Cl)cc2)CC1,inactive: 4.76%
18,CN1CCC(Nc2cccc(F)c2)CC1,inactive: 9.73%
19,O=C(NCC1(N2CCCCC2)CCCCC1)c1cncc(Br)c1,inactive: -1.73%
20,CCCOc1ccc(C(=O)NCC2(N(C)C)CCCCC2)cc1OC,inactive: 8.18%
21,Cc1ccc(C(=O)NCC2(N(C)C)CCCCC2)o1,inactive: 2.45%
22,CN(C)c1cccc(C(=O)NCC2(N3CCCCC3)CCCCC2)c1,inactive: 8%
23,COc1ccc(CN(CCCl)CCCl)cc1Cl,inactive: -5.37%
24,CC(C)c1ccc(NC2CCN(C(=O)OC(C)(C)C)CC2)cc1,inactive: 23.1%
25,O=C(NCC1(N2CCOCC2)CCCCC1)c1cc(F)c(F)cc1Cl,inactive: 0.8%

row,SMILES,inhibition
1,COc1cc(OC)c(C(=O)NCC2(N(C)C)CCCCC2)cc1OC,inactive: -1.37%
2,O=C(NCC1(N2CCOCC2)CCCCC1)c1cc2ccccc2o1,inactive: 11.6%
3,Cc1cc(C)cc(N(C(=O)c2ccccc2)C2CCN(C(=O)OC(C)(C)C)CC2)c1,inactive: 6.38%
4,O=C(NCC1(N2CCCCC2)CCCCC1)c1ccc(Cl)nc1,inactive: 13.5%
5,CCOC(=O)N1CCC(Nc2ccc(OC)cc2)CC1,inactive: 9.11%
6,COc1ccc(Cl)cc1C(=O)NCC1(N2CCOCC2)CCCCC1,inactive: 5.69%
7,O=C(NCC1(N2CCCCC2)CCCCC1)c1ccc(Cl)s1,inactive: -0.42%
8,N#CC1(Nc2ccccc2)CCN(Cc2ccccc2)CC1,inactive: 5.5%
9,O=C(OC1CN2CCC1CC2)C1c2ccccc2Oc2ccccc21 (stereo not given),inactive: 7.44%
10,O=C(NCC1(N2CCCCC2)CCCCC1)c1cccs1,inactive: -2.21%
11,O=C(NCC1(N2CCCCC2)CCCCC1)c1ccc(=O)[nH]c1,inactive: 11.7%
12,COc1ccc(C(=O)NCC2(N3CCCCC3)CCCCC2)c(OC)c1OC,inactive: -1.3%
13,CC(C)(C)OC(=O)N1CCC(N(C(=O)c2ccccc2)c2ccc(F)cc2)CC1,inactive: -6.29%
14,COc1ccc(C(=O)NCC2(N3CCCCC3)CCCCC2)cc1,inactive: 3.01%
15,Cc1cccc(NC2(C#N)CCN(Cc3ccccc3)CC2)c1,inactive: 9.81%
16,CSc1ccccc1C(=O)NCC1(N2CCCCC2)CCCCC1,inactive: 4.94%
17,CCOC(=O)N1CCC(Nc2cccc(C)c2)CC1,inactive: 6.36%
18,COc1cc(C(=O)NCC2(N(C)C)CCCCC2)ccc1OC(F)F,inactive: 4.45%
19,CCOc1ccc(C)cc1CN(CCCl)CCCl,inactive: 17.4%
20,O=C1CCN(Cc2ccccc2)CC1,inactive: 15.1%
21,CCOC(=O)N1CCC(Nc2ccc(F)cc2)CC1,inactive: -1.2%
22,COc1ccc(NC2CCN(CCc3ccccc3)CC2)c(OC)c1,inactive: 13.6%
23,CCCCOc1ccc(C(=O)NCC2(N3CCOCC3)CCCCC2)cc1,inactive: 4.99%
24,O=P1(N(CCCl)CCCl)SCCCS1,inactive: 2.79%
25,O=C(NCC1(N2CCCCC2)CCCCC1)c1ccc(F)cc1,inactive: -4.67%
